Laboratory results published in PMC11241527, “Long-Chain Alkylthio Cyclodextrin Derivatives for Modulation of Quorum-Sensing-Based Bioluminescence in Aliivibrio fischeri Model System” (International Journal of Molecular Sciences, 2024).

Assays:
[1] = Solubility in water at 25 °C; assay type: physicochemical
Method: The characteristics: abbreviations (A), the molecular weight (MW), the solubility in water at 25 °C (WS), and the degree of substitution (DS) of the tested CDs are presented in Table 4 and Table 5.

[2] = Aggregation studies by dynamic light scattering (volume particle size distribution); assay type: physicochemical; conditions: 1% aqueous solution, 25 °C
Method: Most CDs are prone to aggregation in aqueous solution due to their numerous hydroxyl moieties.
The aggregation behavior (nanoparticle formation) was studied by photon correlation spectroscopy (dynamic light scattering) using Malvern Zetasizer Nano ZS (Malvern Instruments, Malvern, UK) equipment at 25 °C using 1% aqueous solution.

## N,N,N-Trimethylammoniopropyl-α-CD [QA-α-CD (2), reference compound]
[1]
  WS, water solubility: >500 mg/mL

## N,N,N-Trimethylammoniopropyl-6-monodeoxy-6-monodecanethiol-α-CD [QA-6S-C10-α-CD (4)]
[2]
  average size of small-sized aggregates: 8.2 nm
  size of small-sized aggregates (hydrodynamic diameter): 8-10 nm
[1]
  WS, water solubility: ~10 mg/mL
